# Membrane permeability of cyclic peptides

Values of Kelly et al. 2021, doi:10.1021/jacs.0c06115, as listed in CycPeptMPDB.

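Lipid, pH, incubation time, direction and concentration are not recorded in the data file. The list need not hold all peptides of the study. Entries at the database's floor value (log10 P of -10) are not listed.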

PAMPA measures passive passage through an artificial lipid membrane. Permeability is in 10^-6 cm/s, converted from the database's log10 values; higher is more permeable.

PAMPA (10^-6 cm/s) | structure (SMILES)
2 | CC(=O)N1CCC[C@@H]1C(=O)N(C)[C@H](CC(C)C)C(=O)N[C@@H]1C(=O)N(C)[C@H](CC(C)C)C(=O)N[C@@H](CC(C)C)C(=O)N[C@@H](CC(C)C)C(=O)N[C@@H](C)C(=O)N[C@@H](CC(C)C)C(=O)N2CCC[C@H]2C(=O)O[C@@H]1C
1.3 | CC(=O)N1CCC[C@H]1C(=O)N(C)[C@@H](CC(C)C)C(=O)N[C@@H]1C(=O)N(C)[C@H](CC(C)C)C(=O)N(C)[C@@H](CC(C)C)C(=O)N[C@@H](CC(C)C)C(=O)N(C)[C@H](C)C(=O)N[C@@H](CC(C)C)C(=O)N2CCC[C@H]2C(=O)O[C@@H]1C
1 | CC(=O)N1CCC[C@@H]1C(=O)N(C)[C@@H](CC(C)C)C(=O)N[C@@H]1C(=O)N[C@@H](CC(C)C)C(=O)N(C)[C@@H](CC(C)C)C(=O)N[C@@H](CC(C)C)C(=O)N(C)[C@@H](C)C(=O)N[C@H](CC(C)C)C(=O)N2CCC[C@H]2C(=O)O[C@@H]1C
0.79 | CC(=O)N1CCC[C@@H]1C(=O)N(C)[C@H](CC(C)C)C(=O)N[C@@H]1C(=O)N[C@H](CC(C)C)C(=O)N[C@@H](CC(C)C)C(=O)N(C)[C@H](CC(C)C)C(=O)N[C@H](C)C(=O)N[C@H](CC(C)C)C(=O)N2CCC[C@@H]2C(=O)O[C@@H]1C
0.46 | CC(=O)N1CCC[C@@H]1C(=O)N(C)[C@H](CC(C)C)C(=O)N[C@@H]1C(=O)N[C@H](CC(C)C)C(=O)N[C@H](CC(C)C)C(=O)N[C@H](CC(C)C)C(=O)N(C)[C@@H](C)C(=O)N[C@H](CC(C)C)C(=O)N2CCC[C@@H]2C(=O)O[C@@H]1C
0.002 | CC(=O)N1CCC[C@@H]1C(=O)N(C)[C@H](CC(C)C)C(=O)N[C@@H]1C(=O)N[C@@H](CC(C)C)C(=O)N[C@@H](CC(C)C)C(=O)N[C@H](CC(C)C)C(=O)N[C@@H](C)C(=O)N[C@H](CC(C)C)C(=O)N2CCC[C@@H]2C(=O)O[C@@H]1C
0.18 | CC(=O)N1CCC[C@H]1C(=O)N(C)[C@@H](CC(C)C)C(=O)N[C@@H]1C(=O)N(C)[C@@H](CC(C)C)C(=O)N(C)[C@H](CC(C)C)C(=O)N[C@H](CC(C)C)C(=O)N[C@@H](C)C(=O)N[C@H](CC(C)C)C(=O)N2CCC[C@@H]2C(=O)O[C@@H]1C
4.1 | CC(=O)N1CCC[C@H]1C(=O)N(C)[C@H](CC(C)C)C(=O)N[C@@H]1C(=O)N[C@@H](CC(C)C)C(=O)N(C)[C@H](CC(C)C)C(=O)N(C)[C@@H](CC(C)C)C(=O)N(C)[C@@H](C)C(=O)N[C@H](CC(C)C)C(=O)N2CCC[C@@H]2C(=O)O[C@@H]1C
1.2 | CC(=O)N1CCC[C@H]1C(=O)N[C@@H]1C(=O)N[C@H](CC(C)C)C(=O)N[C@@H](CC(C)C)C(=O)N(C)[C@@H](CC(C)C)C(=O)N[C@@H](CC(C)C)C(=O)N(C)[C@H](C)C(=O)N[C@@H](CC(C)C)C(=O)N2CCC[C@@H]2C(=O)O[C@@H]1C
2.3 | CC(=O)N1CCC[C@H]1C(=O)N(C)[C@H](CC(C)C)C(=O)N[C@@H]1C(=O)N[C@@H](CC(C)C)C(=O)N(C)[C@@H](CC(C)C)C(=O)N(C)[C@H](CC(C)C)C(=O)N(C)[C@H](C)C(=O)N[C@@H](CC(C)C)C(=O)N2CCC[C@H]2C(=O)O[C@@H]1C
7.8 | CC(=O)N1CCC[C@@H]1C(=O)N(C)[C@@H](CC(C)C)C(=O)N[C@@H]1C(=O)N[C@@H](CC(C)C)C(=O)N(C)[C@@H](CC(C)C)C(=O)N(C)[C@@H](CC(C)C)C(=O)N(C)[C@@H](C)C(=O)N[C@@H](CC(C)C)C(=O)N2CCC[C@@H]2C(=O)O[C@@H]1C
1.1 | CC(=O)N1CCC[C@@H]1C(=O)N(C)[C@@H](CC(C)C)C(=O)N[C@@H]1C(=O)N[C@H](CC(C)C)C(=O)N[C@H](CC(C)C)C(=O)N[C@H](CC(C)C)C(=O)N(C)[C@@H](C)C(=O)N[C@H](CC(C)C)C(=O)N2CCC[C@@H]2C(=O)O[C@@H]1C
3.5 | CC(=O)N1CCC[C@H]1C(=O)N(C)[C@H](CC(C)C)C(=O)N[C@@H]1C(=O)N(C)[C@@H](CC(C)C)C(=O)N(C)[C@H](CC(C)C)C(=O)N(C)[C@H](CC(C)C)C(=O)N(C)[C@@H](C)C(=O)N[C@H](CC(C)C)C(=O)N2CCC[C@@H]2C(=O)O[C@@H]1C
2.3 | CC(=O)N1CCC[C@H]1C(=O)N(C)[C@H](CC(C)C)C(=O)N[C@@H]1C(=O)N[C@H](CC(C)C)C(=O)N(C)[C@@H](CC(C)C)C(=O)N(C)[C@H](CC(C)C)C(=O)N[C@H](C)C(=O)N[C@@H](CC(C)C)C(=O)N2CCC[C@H]2C(=O)O[C@@H]1C
1.8 | CC(=O)N1CCC[C@@H]1C(=O)N(C)[C@@H](CC(C)C)C(=O)N[C@@H]1C(=O)N[C@@H](CC(C)C)C(=O)N[C@@H](CC(C)C)C(=O)N[C@H](CC(C)C)C(=O)N(C)[C@@H](C)C(=O)N[C@@H](CC(C)C)C(=O)N2CCC[C@H]2C(=O)O[C@@H]1C
2.4 | CC(=O)N1CCC[C@@H]1C(=O)N(C)[C@@H](CC(C)C)C(=O)N[C@@H]1C(=O)N[C@@H](CC(C)C)C(=O)N(C)[C@H](CC(C)C)C(=O)N(C)[C@@H](CC(C)C)C(=O)N(C)[C@@H](C)C(=O)N[C@H](CC(C)C)C(=O)N2CCC[C@H]2C(=O)O[C@@H]1C
0.25 | CC(=O)N1CCC[C@H]1C(=O)N(C)[C@H](CC(C)C)C(=O)N[C@@H]1C(=O)N[C@@H](CC(C)C)C(=O)N[C@H](CC(C)C)C(=O)N[C@H](CC(C)C)C(=O)N[C@H](C)C(=O)N[C@H](CC(C)C)C(=O)N2CCC[C@H]2C(=O)O[C@@H]1C
1.5 | CC(=O)N1CCC[C@@H]1C(=O)N(C)[C@@H](CC(C)C)C(=O)N[C@@H]1C(=O)N[C@H](CC(C)C)C(=O)N[C@H](CC(C)C)C(=O)N(C)[C@H](CC(C)C)C(=O)N(C)[C@@H](C)C(=O)N[C@@H](CC(C)C)C(=O)N2CCC[C@H]2C(=O)O[C@@H]1C
2.1 | CC(=O)N1CCC[C@@H]1C(=O)N(C)[C@@H](CC(C)C)C(=O)N[C@@H]1C(=O)N(C)[C@H](CC(C)C)C(=O)N[C@@H](CC(C)C)C(=O)N(C)[C@H](CC(C)C)C(=O)N(C)[C@H](C)C(=O)N[C@@H](CC(C)C)C(=O)N2CCC[C@@H]2C(=O)O[C@@H]1C
0.11 | CC(=O)N1CCC[C@@H]1C(=O)N(C)[C@H](CC(C)C)C(=O)N[C@@H]1C(=O)N[C@@H](CC(C)C)C(=O)N[C@H](CC(C)C)C(=O)N[C@@H](CC(C)C)C(=O)N[C@@H](C)C(=O)N[C@H](CC(C)C)C(=O)N2CCC[C@H]2C(=O)O[C@@H]1C

Excerpt, the opening 2 entries:

structure (SMILES) | PAMPA (10^-6 cm/s)
CC(=O)N1CCC[C@@H]1C(=O)N(C)[C@H](CC(C)C)C(=O)N[C@@H]1C(=O)N(C)[C@H](CC(C)C)C(=O)N[C@@H](CC(C)C)C(=O)N[C@@H](CC(C)C)C(=O)N[C@@H](C)C(=O)N[C@@H](CC(C)C)C(=O)N2CCC[C@H]2C(=O)O[C@@H]1C | 2
CC(=O)N1CCC[C@H]1C(=O)N(C)[C@@H](CC(C)C)C(=O)N[C@@H]1C(=O)N(C)[C@H](CC(C)C)C(=O)N(C)[C@@H](CC(C)C)C(=O)N[C@@H](CC(C)C)C(=O)N(C)[C@H](C)C(=O)N[C@@H](CC(C)C)C(=O)N2CCC[C@H]2C(=O)O[C@@H]1C | 1.3